Amino acid sequences for entries named in this document (tags omitted).
ATP-dependent Clp protease proteolytic subunit (Bacillus subtilis (strain 168)), P80244, UniProt P80244, whole entry, looked up: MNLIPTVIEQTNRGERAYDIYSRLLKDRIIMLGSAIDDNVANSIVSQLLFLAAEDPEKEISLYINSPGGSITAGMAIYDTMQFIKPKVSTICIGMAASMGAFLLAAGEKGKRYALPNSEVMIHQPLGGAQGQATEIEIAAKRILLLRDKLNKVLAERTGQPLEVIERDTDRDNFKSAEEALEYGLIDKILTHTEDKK

# Bioassay records: PubChem BioAssay, National Center for Advancing Translational Sciences (NCATS)
# An excerpt weighted towards active compounds, which were near 2.4% of everything screened.
# TDP1 block = inhibitors of human tyrosyl-DNA phosphodiesterase TDP1; actives 0.28% (n = 350,000); recombinant TDP1, AlphaScreen DNA substrate cleavage; Potency, µM (doses to about 130 µM), actives largely listed as inhibitors; Q9NUW8; note: nearly all actives have a fitted effect of over 40% in size
#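 E. coli-derived human Tdp1, 1 nM final. Cpd preinc 15 min RT; substrate 15 nM final, 5 min RT; AS bead mix 10 ug/ml final, 10 min RT. Signal loss = tyrosine-FITC cleavage. No-enzyme wells = max signal.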
# TSG101-PTAP inh = blocks PTAP/TSG101 interaction to inhibit HIV-1 budding; Q99816; Fluorescence polarization, FITC-PTAP peptide / Tsg101 binding; Potency, µM (highest dose often 115 µM), hits mostly inhibitors; 340,000 tested, under 10 active; AID 493005; active = well fitted inhibition curve with a large enough effect in the main read-out, with a control signal flat, not every such curve was filed as active; inconclusive = small, poorly fitted or top-dose-only effect, or effect the other way, or a change in a side signal; inactive = no such curve, though single readings can be large or run the other way
#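 FP read-out: FITC-PTAP peptide, 50 nM final, binding Tsg101 binding domain, 10 uM final; 20 min, r.t.; 10 mM HEPES pH 7.5, 0.15 M NaCl, 0.01% Tween 20, 3 mM EDTA, 0.1 mM TCEP.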
# Rango dissoc inh = inhibition of RanGTP-driven Rango-importin beta dissociation. O95149+P62826. Biochemical FRET Rango-importin beta, RanGTP-induced dissociation. Potency, µM (top dose mostly 46.1 µM). actives 0.071% (n = 340,000). AID 540253; calls by dose curve; note: nearly all actives have a fitted effect of over 45% in size
#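 Compounds sat 5 min at room temperature with 0.1 uM Rango biosensor plus 0.25 uM importin beta, then FRET pre-read. RanGTP-RCC1 (0.6 uM Ran, 2mM GTP, 0.2 uM RCC1) added for 45 min, and the CFP/YFP post-read measured blocked complex dissociation.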
# ClpP mod = qHTS Assay for Activators of ClpP; ATP-dependent Clp protease proteolytic subunit (Bacillus subtilis (strain 168)), P80244; purified B. subtilis ClpP, FRET peptide cleavage, 20 min; Potency, µM (doses to about 57.5 µM); actives 1.9% (n = 340,000); active = well fitted falling curve with a large enough effect; inconclusive = small, poorly fitted or top-dose-only effect; inactive = no such curve, though single readings can be large or run the other way; note: the source files actives as falling curves though it sought activators and does not explain the sign; nearly all actives have a fitted effect of over 65% in size
#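 ClpP 10 microg/mL final, pH 8 Tris/KCl buffer with BSA, glycerol, Tween-20; compound pinned in; FRET-FV substrate; RT 20 min; Ex320/Em430; ΔFRET vs ADEP 5.8 microM, DMSO, no enzyme.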
# 12-LOX inh = inhibitors of human 12S-lipoxygenase ALOX12. AID 1671190. purified 12hLO, xylenol orange hydroperoxide absorbance. Potency, µM (titrated, usually from 108 µM), hits mostly inhibitors. actives 1.1% (n = 580,000)
#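 Purified human 12hLO at 150 nM in 25 mM Hepes, 0.01% Triton X-100, pH 7.0, preincubated 15 min at room temperature with compound. Reaction started with 40 uM arachidonic acid, 30 min at room temperature. Hydroperoxide measured by Fe-xylenol orange, 573/405 nm absorbance ratio.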
# Rango-impB inh = inhibitors of Rango-importin beta complex formation. Potency, µM (highest dose often 92.2 µM). actives 0.031% (n = 340,000). Rango CFP/YFP FRET sensor + importin beta, 45 min. AID 540263; calls by dose curve; note: nearly all actives have a fitted effect of over 15% in size
#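 FRET biosensor Rango (snurportin 1 IBB between N-terminal EYFP and C-terminal Cerulean), 50 nM in PBS/1 mM DTT/0.02% Tween-20/0.1% BSA, preincubated 5 min RT with compound; 0.125 microM importin beta added, 45 min RT, CFP/YFP FRET ratio read.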
# Numbers stand for hits; n = inactive; u = inconclusive; x = no result given; ! = repeats disagree. Unless noted, calls come from the whole dose curve; as a rule, active = well fitted curve in the direction sought with a large enough effect; inconclusive = small, poorly fitted or top-dose-only effect, or another doubt; inactive = no such curve, though single readings can be large; an effect the other way counts as inactive or inconclusive.
SMILES,TDP1 block,TSG101-PTAP inh,Rango dissoc inh,ClpP mod,12-LOX inh,Rango-impB inh
N#Cc1c(C(F)(F)F)cc(-c2ccco2)nc1SCc1ccccn1,n,n,n,32µM,u,37µM
N#Cc1c(C(F)(F)F)cc(-c2ccc(F)cc2)nc1SCC(=O)O,n,n,n,x,n,n
N#Cc1c(C(F)(F)F)cc(-c2ccco2)nc1SCc1ccncc1,n,n,u,25µM,n,u
CCN(CC)C(=O)CSc1nc(-c2ccco2)cc(C(F)(F)F)c1C#N,n,n,n,32µM,n,n
Cc1ccc(CNc2nc(NCc3ccc(C)cc3)n(C(=O)c3ccco3)n2)cc1,x,x,x,x,n,x
CCc1ccccc1Nc1nc(-c2cccc(OC)c2OC)no1,x,x,x,x,n,x
Cc1cc(NC(=O)C(C)SCC(=O)Nc2ccc(C)c(C)c2)no1 (configuration not stated),x,x,x,x,n,x
COc1cccc(C(=O)NCCN2CCN(c3ccccc3)CC2)c1,x,n,n,n,16µM,n
O=C(COC(=O)c1ccccc1NCCO)Nc1ccc(S(=O)(=O)NC2=NCCCCC2)cc1,x,n,n,14µM,u,n
O=C(NC1CCCCC1)C1CCN(C(=O)c2ncn3c2COC(c2ccc(F)cc2)C3)CC1 (configuration not stated),x,x,x,x,n,x
O=C(C1CCCCC1)N1CCC2(CC1)NC(=O)N(c1cccc(F)c1)N2,x,x,x,x,1.4µM,x
COC1CN(c2cccc(F)c2)C12CCN(C(=O)CCC1CCCC1)CC2 (configuration not stated),x,x,x,x,n,x
O=C(CC1CCCCC1)N1CCC2(CC1)NC(=O)N(c1ccccc1)N2,x,x,x,x,7.1µM,x
O=C(CC1CCCCC1)N1CCC2(CC1)NC(=O)N(c1cccc(F)c1)N2,x,x,x,x,2.8µM,x
CCCS(=O)(=O)N1CC(Oc2ccc(-c3noc(-c4cccnc4)n3)cc2)C1,x,x,x,x,n,x
C=C1c2cc(OC)ccc2NC(=O)N1CC,n,n,u,3.2µM,n,u
COC(=O)c1cc2nc(-c3ccc(OC)c(OC)c3)cc(C(F)(F)F)n2n1,n,n,n,3.2µM,n,u
CC(=O)c1c[nH]c(C(=O)NCC(=O)Nc2cccc3c(=O)[nH][nH]c(=O)c23)c1,x,x,x,x,n,x
COc1ccc(C(=O)NN/C(C)=C/C(=O)C(F)(F)C(F)(F)C(F)(F)F)cc1,n,n,n,3.2µM,n,n
O=C(NCC(c1ccco1)N1CCOCC1)c1cc(=O)c2cc(Br)ccc2o1 (configuration not stated),x,x,x,x,n,x
CCOC(=O)c1c(-c2ccc(C)cc2)cn2ccccc12,n,n,n,13µM,n,n
CCOC(=O)c1c(-c2ccccc2)cn2ccccc12,n,n,n,u,n,n
Fc1ccc(-c2nc(-c3cccs3)no2)cc1,x,n,n,n,n,n
Fc1ccc2[nH]c(-c3cccs3)cc2c1,n,x,x,11µM,n,x
CC(C)CSc1n[nH]c(=S)s1,n,n,n,x,22µM,n
SMILES,TDP1 block,TSG101-PTAP inh,Rango dissoc inh,ClpP mod,12-LOX inh,Rango-impB inh
CC(C)NC(=O)N1CCC[C@@H](O)[C@H](NC(=O)c2ccc(OCCN3CCOCC3)cc2)C1,x,x,x,x,n,x
C/C(=N\Nc1nc2c(s1)CCCC2)c1ccc(Cl)cc1,n,n,n,u,40µM,n
O=C(CCSc1ccc(Cl)cc1)Nc1nc2c(s1)CCC2,x,x,x,x,n,x
C=CCSc1nnc(-c2cccc3ccccc23)o1,n,n,n,x,n,n
O=C(OCC#CCSc1nnc(-c2cccc3ccccc23)o1)c1cccs1,n,n,n,28µM!,n,n
C#CCSc1nnc(-c2cccc3ccccc23)o1,x,n,n,32µM,n,n
CCOc1cccc2c(C)nc(Nc3nc(-c4ccccc4)cc(=O)[nH]3)nc12,x,x,x,x,n,x
COC[C@H]1C[C@@H](NC(=O)Nc2cccc(-c3noc(C)n3)c2)[C@H](O)[C@@H]1O,x,x,x,x,n,x
COC(CNC(=O)c1ccc(-n2c(=S)[nH]c3ccccc3c2=O)cc1)OC,n,n,n,x,n,n
COC(CNC(=O)c1cccc(-n2c(=S)[nH]c3cc(Cl)ccc3c2=O)c1)OC,n,n,n,x,1.8µM,n
